# Data: US12344626B2, “Pharmaceutical compounds and therapeutic methods” (RUTGERS, THE STATE UNIVERSITY OF NEW JERSEY, priority 2019, dated 2025)
# Conditions: 44 targets listed in the 3rd table; COX1, COX2 and 5-HT2B positive
substance,measurement,value
"Zn[(E)-2-(1-(4-(2-methoxyethoxy)pyridin-2-yl)ethylidene)-N,N-dimethylhydrazine-1-carbothioamide]2 [ZN-8]",Positive hits in the CEREP-44 Safety Screen,The only positive hits were
